Results published in PMC4764553, “Human cytomegalovirus IE1 protein alters the higher-order chromatin structure by targeting the acidic patch of the nucleosome” (eLife, 2016).

System: LANA N-terminal CTD peptide;human histone octamer WT (Kaposi's sarcoma-associated herpesvirus;Homo sapiens)
Test: ITC

Question: Which Kd does the source give for 147-bp Widom 601 (human NCP) here?
Answer: Its Kd is 250 nM.
